Results reported in patent publication US20260069578A1, “TREATMENT OF NEUTROPHILIC DERMATOSES” (UNION THERAPEUTICS A/S, priority 2022, published 2026).

The chains behind the UniProt entries cited, without tags or fusion partners. Residues count along the entry.
UniProt P27815, 1-825 isoform P27815-6: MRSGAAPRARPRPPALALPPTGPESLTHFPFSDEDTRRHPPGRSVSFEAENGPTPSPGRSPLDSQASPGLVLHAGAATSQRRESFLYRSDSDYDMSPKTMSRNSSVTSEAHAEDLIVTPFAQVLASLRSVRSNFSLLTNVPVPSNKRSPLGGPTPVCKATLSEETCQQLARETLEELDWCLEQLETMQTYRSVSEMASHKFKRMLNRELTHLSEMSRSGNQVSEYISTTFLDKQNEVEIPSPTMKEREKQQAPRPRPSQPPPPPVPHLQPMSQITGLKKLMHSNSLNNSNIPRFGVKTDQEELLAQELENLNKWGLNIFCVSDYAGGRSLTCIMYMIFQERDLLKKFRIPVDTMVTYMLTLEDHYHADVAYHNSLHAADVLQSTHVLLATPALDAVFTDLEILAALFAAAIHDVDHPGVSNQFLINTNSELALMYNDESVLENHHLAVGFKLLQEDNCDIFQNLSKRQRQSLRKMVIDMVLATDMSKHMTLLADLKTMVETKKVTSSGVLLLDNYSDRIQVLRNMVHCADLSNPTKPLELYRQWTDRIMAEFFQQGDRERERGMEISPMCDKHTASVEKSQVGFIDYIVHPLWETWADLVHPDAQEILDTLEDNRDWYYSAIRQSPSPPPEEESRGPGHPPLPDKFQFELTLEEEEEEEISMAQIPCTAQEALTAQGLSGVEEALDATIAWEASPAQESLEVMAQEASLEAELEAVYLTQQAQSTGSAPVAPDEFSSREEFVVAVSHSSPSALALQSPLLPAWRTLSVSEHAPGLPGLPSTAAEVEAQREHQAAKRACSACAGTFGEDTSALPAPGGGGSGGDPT
UniProt Q08493, 107-712: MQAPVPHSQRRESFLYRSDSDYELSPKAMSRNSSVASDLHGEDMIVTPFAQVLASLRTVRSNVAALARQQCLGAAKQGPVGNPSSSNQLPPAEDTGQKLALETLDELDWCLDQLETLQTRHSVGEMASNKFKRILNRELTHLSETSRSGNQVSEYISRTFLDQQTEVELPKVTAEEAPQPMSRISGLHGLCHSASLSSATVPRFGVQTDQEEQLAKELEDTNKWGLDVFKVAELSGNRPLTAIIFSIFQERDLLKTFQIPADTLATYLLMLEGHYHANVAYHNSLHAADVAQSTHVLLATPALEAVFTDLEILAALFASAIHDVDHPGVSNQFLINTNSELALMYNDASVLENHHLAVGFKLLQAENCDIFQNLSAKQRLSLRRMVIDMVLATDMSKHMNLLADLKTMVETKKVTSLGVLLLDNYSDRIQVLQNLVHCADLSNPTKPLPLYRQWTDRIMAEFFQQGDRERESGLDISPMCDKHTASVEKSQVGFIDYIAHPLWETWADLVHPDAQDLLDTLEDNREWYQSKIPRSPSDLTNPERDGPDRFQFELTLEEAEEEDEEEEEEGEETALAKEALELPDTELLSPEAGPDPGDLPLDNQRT

Tests used:
Format in all cases: biochemical
PDE4A4 = PDE4A4 (Homo sapiens, UniProt P27815)
PDE4A10 = PDE4A10 (Homo sapiens, UniProt P27815)
PDE4C2 = PDE4C2 (Homo sapiens, UniProt Q08493)
Experimental: Enzyme Preparations: Partially purified human recombinant phosphodiesterases (PDEs) were obtained by cloning cDNA and expressing in S. frugiperda insect cells using a baculovirus expression system. Cells are harvested from culture by centrifuging at 400×g for 5 minutes. Cell pellet is resuspended in 20 ml of RIPA Buffer (150 mM NaCl, 10 mM Tris, 0.1% NP-40, pH8.3), 4 ml/200 ml of culture, plus protease inhibitors (100 μl/10 ml) and incubated on ice for 10-20 minutes then spun at 3500×g for 10 minutes at 4° C. Supernatant is kept and the pellet thrown away.
Tritium-labelled cyclic AMP is hydrolysed to 5′-AMP o by PDE. The 5′-AMP is then further hydrolysed to adenosine by nucleotidase in snake venom. An anion-exchange resin binds all charged nucleotides and leaves [^3H]adenosine as the only labelled compound to be counted by liquid scintillation.
50 μl of diluted PDE enzyme was incubated with 50 μl of [^3H]-cAMP (specific activity 25 Ci/mmol) and 11 μl of 50% DMSO (or compound dilution) for 20 minutes at 30° C. […] 5 μl of supernatant was removed and added to 200 μl of MicroScint-20 in white plates (Greiner 96 well Optiplate) and shaken for 30 minutes before reading on Perkin Elmer TopCount Scintillation Counter. […] values were calculated using GraphPad Prism software (version 8).

SMILES: CCOc1cc([C@@H](CS(C)(=O)=O)N2C(=O)c3cccc(NC(C)=O)c3C2=O)ccc1OC [Apremilast, reference compound]
- IC50 (PDE4A4): 42.4 nM
- IC50 (PDE4A10): 342 nM
- IC50 (PDE4C2): 295 nM
